{"source": "patent US9522128B2", "about": "(FUNDACION PARA LA INVESTIGACION BIOMEDICA DEL HOSPITAL …, priority 2008, dated 2016)", "key": {"rabbits [1]": {"test_system": "rabbits", "details": "cilastatin alone; Toyoguchi 1997; cited from earlier work"}, "Wistar rats": {"test_system": "Wistar rats", "assay": "Extended in vivo study of cilastatin nephroprotection against acute toxic renal failure caused by cisplatin", "source_text": "A total of 28 animals were used, which were randomized into 4 groups with a sample size n=6-8 animals per group.\nThroughout the period, animals were given free access to both water and feed (standard diet) in a controlled light, temperature, and humidity environment. One day before killing, animals were introduced into metabolic cages with free access to feed and water ad libitum to collect 24-hour urine, in order to quantify urine output and protein concentration.\nAt the time of killing, animals (previously weighed) were anesthetized in the experimental operating room with ketamine (10 mg/kg) and diazepam (4 mg/kg) and were drawn blood by cannulation of the abdominal aorta at the bifurcation level. Blood was first incubated for 30 minutes at 37° C., and then for one hour at 4° C. Subsequent centrifugation at 2000 rpm for 15 minutes at 4° C. allowed for obtaining blood serum, which was frozen at −80° C. until use. […] Kidneys were subsequently removed, decapsulated, and kept in cold saline during their handling to minimize tissue degradation. Kidneys (right and left) were weighed and were subsequently handled similarly. […]\nHemodynamic variables and serum and urine kidney function parameters (FIG. 14) were measured using a Dimension RxL autoanalyzer from Dade-Behring according to manufacturer instructions. […]"}, "rabbits [2]": {"test_system": "rabbits", "details": "high doses of imipenem, without or with concomitant cilastatin; Norrby 1985; cited from earlier work"}, "[3]": {"test_system": "renal degradation of imipenem", "details": "healthy subjects; cited from earlier work"}, "[4]": {"details": "all species (rabbit, rat, pig cells, human SPC data)", "source_text": "No data have been reported for humans. […] The resulting plot is shown in FIG. 14 (diamonds: rabbit data; triangles: rat data; blank squares: data from pig experiments; filled squares including a white point: data from the summary of product characteristics for humans)."}}, "data": [{"smiles": "CC1(C)C[C@@H]1C(=O)N/C(=C\\CCCCSC[C@H](N)C(=O)O)C(=O)[O-].[Na+]", "note": "(relative stereo) [cilastatin, monosodium salt of [R—[R*,S*—(Z)]]-7-[(2-amino-2-carboxyethyl)thio]-2-[[(2,2-dimetylcyclopropyl)carbonyl]amino]-2-heptenoic acid]", "values": [{"measurement": "renal excretion of vancomycin", "setting": "rabbits [1]", "value": "accelerated renal excretion of vancomycin"}, {"measurement": "Δ WEIGHT", "setting": "Wistar rats; body weight balance at the end of the extended study, mean ± standard error", "value": "14.3 ± 1.5"}, {"measurement": "weight loss", "setting": "Wistar rats; in words, cisplatin 5 mg/kg with or without cilastatin", "value": "clearly lower weight loss"}, {"measurement": "tubular toxicity", "setting": "rabbits [2]", "value": "this effect is prevented"}, {"measurement": "accumulation in multiple dose studies", "setting": "[3]", "value": "does not accumulate"}, {"measurement": "administered dose up to which the dose/plasma level relationship is linear", "setting": "[4]", "value": "≤ 200", "unit": "mg/kg body weight"}]}]}
